Measured values from patent US8258098B2, “Antitumoral treatments” (Pharma Mar, S.A., priority 2006, dated 2012).

Experiments:
[1] = system: LOX-IMVI melanoma tumor xenografts; test: Net tumor volume in tumor xenografts; type: in vivo, female athymic mice; settings: DAY 6, Aplidine 50 μg/kg, DTIC 30 mg/kg, Carboplatin 25 mg/kg, i.p.
Excerpt: (§1) Athymic nude female mice were received from Harlan Sprague Dawley, Madison, Wis. at 4-5 weeks of age. Mice were acclimated to the laboratory for at least one week prior to implantation of tumor. Animals were housed in static cages with food and water allowed ad libitum. Experimental animals were implanted with either tumor fragments derived from transplantation established human tumors or with cells obtain directly from in vitro culture. Tumors were implanted subcutaneously on the right flank on Day 0.
(§2) Tumor size measurements were recorded twice weekly beginning on day 4 or 5 using vernier calipers. The formula to calculate volume for a prolate ellipsoid was used to estimate tumor volume from 2-dimensional tumor measurements: tumor volume (mm^3)=(length×width^2)÷2. Assuming unit density, volume was converted to weight (i.e., 1 mm^3=1 mg). […] Treatments were initiated and administered on an individual body weight basis. A dose range finding study was performed on each tumor model to determine the appropriate dose level of each compound used in the combination studies.

[2] = system: MRI-H187 melanoma tumor xenografts; test: Net tumor volume in tumor xenografts; type: in vivo, female athymic mice; settings: MRI-H187, DAY 41; Aplidine 50 μg/kg, DTIC 40 mg/kg, Carboplatin 25 mg/kg, i.p.
Excerpt: as §1, §2

With `CN(C)/N=N/c1[nH]cnc1C(N)=O` [DTIC, dacarbazine] the “Net Tumor Volume ± S.E.M.” value [1] was 105 ± 5 mg and the “Net Tumor Volume ± S.E.M.” value [2] was 1182 ± 324 mg.
